Data taken from PubChem BioAssay (Tox21).
Values joined by “and” are separate entries in the source; they are usually repeats but may differ in a detail not shown here. Equal entries are not always repeated. For some assays here: Shown are results outside the selection of hits, which stands elsewhere. Results filed as inconclusive are left out. The source holds several records for some structures; these can differ, active in one and inactive in another. The entries are a selection whose mix differs from that of the whole data set. Active and inactive are the calls of the source. Unless noted, calls come from the whole dose curve; as a rule, active = well fitted curve in the direction sought with a large enough effect in the repeat runs; inconclusive = weak or mixed curves; inactive = no such curve, though single readings can be large; an effect the other way counts as inactive or inconclusive.

Sequences of proteins named here, by UniProt entry; tags and fusion partners are left off. A change or cut given only in a name is not applied to a line headed by its entry.
UniProt Q92731, whole entry, looked up: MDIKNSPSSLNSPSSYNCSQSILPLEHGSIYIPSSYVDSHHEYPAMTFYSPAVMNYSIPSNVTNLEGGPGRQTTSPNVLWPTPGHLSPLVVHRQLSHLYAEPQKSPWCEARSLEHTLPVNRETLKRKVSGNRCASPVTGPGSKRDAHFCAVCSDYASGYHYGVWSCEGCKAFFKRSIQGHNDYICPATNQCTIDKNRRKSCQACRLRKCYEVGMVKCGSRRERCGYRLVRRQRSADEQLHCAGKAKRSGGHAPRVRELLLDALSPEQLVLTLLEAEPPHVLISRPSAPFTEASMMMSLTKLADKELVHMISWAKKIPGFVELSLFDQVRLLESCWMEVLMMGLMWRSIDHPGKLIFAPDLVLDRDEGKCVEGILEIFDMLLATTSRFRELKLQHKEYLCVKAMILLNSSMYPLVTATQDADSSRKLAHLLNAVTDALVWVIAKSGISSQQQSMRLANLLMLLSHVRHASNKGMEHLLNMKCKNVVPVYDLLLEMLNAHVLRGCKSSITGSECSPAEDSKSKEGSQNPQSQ
UniProt P03372, whole entry, looked up: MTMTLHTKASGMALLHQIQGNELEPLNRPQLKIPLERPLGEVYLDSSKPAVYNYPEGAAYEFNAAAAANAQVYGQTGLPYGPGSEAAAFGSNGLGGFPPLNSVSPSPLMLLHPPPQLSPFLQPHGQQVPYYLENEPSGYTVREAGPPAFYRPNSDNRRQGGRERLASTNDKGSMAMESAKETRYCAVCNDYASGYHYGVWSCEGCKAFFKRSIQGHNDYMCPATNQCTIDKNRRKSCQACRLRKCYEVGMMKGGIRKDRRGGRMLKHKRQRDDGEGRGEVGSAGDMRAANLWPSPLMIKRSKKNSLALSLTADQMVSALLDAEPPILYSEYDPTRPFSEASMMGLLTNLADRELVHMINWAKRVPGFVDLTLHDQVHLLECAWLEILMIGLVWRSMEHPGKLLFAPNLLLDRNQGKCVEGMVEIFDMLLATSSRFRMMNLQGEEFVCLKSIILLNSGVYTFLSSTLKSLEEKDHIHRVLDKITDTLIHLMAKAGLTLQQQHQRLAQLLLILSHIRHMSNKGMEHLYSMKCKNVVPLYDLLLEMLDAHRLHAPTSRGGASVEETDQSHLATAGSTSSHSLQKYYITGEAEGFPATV
UniProt Q96RI1: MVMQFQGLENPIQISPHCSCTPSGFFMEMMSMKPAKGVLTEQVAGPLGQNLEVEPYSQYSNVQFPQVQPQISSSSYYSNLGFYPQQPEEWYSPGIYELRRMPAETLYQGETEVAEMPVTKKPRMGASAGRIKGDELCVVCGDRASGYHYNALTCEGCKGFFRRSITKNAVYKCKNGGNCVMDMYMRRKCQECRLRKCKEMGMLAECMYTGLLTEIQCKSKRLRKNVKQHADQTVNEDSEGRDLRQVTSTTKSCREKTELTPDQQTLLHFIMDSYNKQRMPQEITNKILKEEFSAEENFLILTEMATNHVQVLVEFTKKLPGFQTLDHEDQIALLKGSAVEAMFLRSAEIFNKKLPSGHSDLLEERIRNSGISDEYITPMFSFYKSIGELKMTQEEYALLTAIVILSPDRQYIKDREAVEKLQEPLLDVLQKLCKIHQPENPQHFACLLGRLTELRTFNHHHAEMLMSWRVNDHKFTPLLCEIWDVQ
UniProt P34981: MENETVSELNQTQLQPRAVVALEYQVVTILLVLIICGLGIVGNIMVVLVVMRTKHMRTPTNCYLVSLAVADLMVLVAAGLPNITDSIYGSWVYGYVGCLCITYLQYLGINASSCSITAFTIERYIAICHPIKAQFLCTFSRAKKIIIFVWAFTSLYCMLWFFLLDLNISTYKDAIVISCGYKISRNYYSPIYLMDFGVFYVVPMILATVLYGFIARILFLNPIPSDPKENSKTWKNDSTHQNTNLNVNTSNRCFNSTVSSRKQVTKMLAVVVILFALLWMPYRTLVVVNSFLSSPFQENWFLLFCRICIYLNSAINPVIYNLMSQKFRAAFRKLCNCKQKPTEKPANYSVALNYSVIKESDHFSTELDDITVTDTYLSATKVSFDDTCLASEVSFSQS
UniProt P10275: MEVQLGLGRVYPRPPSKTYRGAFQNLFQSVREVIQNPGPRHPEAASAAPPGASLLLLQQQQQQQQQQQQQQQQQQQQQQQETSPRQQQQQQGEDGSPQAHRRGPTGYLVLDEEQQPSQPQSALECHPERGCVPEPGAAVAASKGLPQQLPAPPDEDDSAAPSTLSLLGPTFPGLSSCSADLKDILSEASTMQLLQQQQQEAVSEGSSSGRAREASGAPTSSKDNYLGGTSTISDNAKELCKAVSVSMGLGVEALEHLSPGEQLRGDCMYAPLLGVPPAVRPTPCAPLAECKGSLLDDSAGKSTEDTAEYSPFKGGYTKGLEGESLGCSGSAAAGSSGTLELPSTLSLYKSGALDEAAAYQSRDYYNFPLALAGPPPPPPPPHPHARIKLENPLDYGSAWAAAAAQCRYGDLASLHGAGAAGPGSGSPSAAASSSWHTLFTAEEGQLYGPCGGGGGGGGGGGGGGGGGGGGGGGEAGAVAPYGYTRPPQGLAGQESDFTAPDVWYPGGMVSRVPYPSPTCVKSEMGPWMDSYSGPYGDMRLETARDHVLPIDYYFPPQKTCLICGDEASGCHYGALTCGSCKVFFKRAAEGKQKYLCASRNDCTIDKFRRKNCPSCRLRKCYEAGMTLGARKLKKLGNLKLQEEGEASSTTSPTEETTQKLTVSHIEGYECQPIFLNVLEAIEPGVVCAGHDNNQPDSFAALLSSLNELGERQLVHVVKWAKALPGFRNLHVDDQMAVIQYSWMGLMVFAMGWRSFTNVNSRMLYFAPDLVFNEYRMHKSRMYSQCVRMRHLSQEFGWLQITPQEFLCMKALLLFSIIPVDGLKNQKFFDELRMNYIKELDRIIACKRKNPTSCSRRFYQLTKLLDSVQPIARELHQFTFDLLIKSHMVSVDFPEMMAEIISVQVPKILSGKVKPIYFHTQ

How the values were obtained:
[1] = target: Estrogen receptor beta (Homo sapiens) (UniProt Q92731); experiment: qHTS assay to identify small molecule antagonists of the estrogen receptor beta (ER-beta) signaling pathway (AID 1259378; active = well fitted inhibition curve with a large enough effect in the signal ratio in the repeat runs, not every such curve was filed as active; the % refers to the signal ratio; note: % is set by controls: 0 for no effect and ±100 for the full control effect)
How it was run: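 ER-beta-UAS-bla HEK293T (GripTite) cells in 2% charcoal-stripped FBS medium were preincubated 6 hr at 37C, dosed with compound, then stimulated with 1 nM E2 (final) for 16 hr; beta-lactamase reporter read by B/G FRET fluorescence after 2 hr substrate loading.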

[2] = target: Estrogen receptor (Homo sapiens) (UniProt P03372); experiment: qHTS assay to identify small molecule antagonists of the estrogen receptor alpha (ER-alpha) signaling pathway (AID 743069; active = well fitted curve in the direction sought with a large enough effect in the signal ratio in the repeat runs, not every such curve was filed as active; the % refers to the signal ratio; note: % is set by controls: 0 for no effect and ±100 for the full control effect); conditions: HEK293 ER-alpha-UAS-bla, beta-lactamase ratio, antagonist mode
[3] = target: Estrogen receptor (Homo sapiens) (UniProt P03372); experiment: qHTS assay to identify small molecule agonists of the estrogen receptor alpha (ER-alpha) signaling pathway (AID 743075; calls by dose curve; note: % is set by controls: 0 for no effect and ±100 for the full control effect)
[4] = target: Estrogen receptor (Homo sapiens) (UniProt P03372); experiment: qHTS assay to identify small molecule agonists of the estrogen receptor alpha (ER-alpha) signaling pathway using the BG1 cell line (AID 743079); conditions: BG1Luc4E2 cells, ERE-luciferase agonist, 22 h; at 95 µM (top of the series); note: % is set by controls: 0 for no effect and ±100 for the full control effect; nearly all actives have a fitted effect of over 20% in size
[5] = target: Bile acid receptor (Homo sapiens) (UniProt Q96RI1); experiment: qHTS assay to identify small molecule antagonists of the farnesoid-X-receptor (FXR) signaling pathway (AID 743217; active = well fitted inhibition curve with a large enough effect in the signal ratio in the repeat runs, not every such curve was filed as active; the % refers to the signal ratio; note: % is set by controls: 0 for no effect and ±100 for the full control effect); conditions: HEK293T FXR-UAS-bla, beta-lactamase ratio, CDCA-stimulated, 16 h; at 81.1 µM (top of the series) unless noted
How it was run: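 Read-out: beta-lactamase FRET fluorescence (LiveBLAzer B/G substrate, 2 h, room temperature) in GeneBLAzer FXR-UAS-bla HEK 293T cells. Compounds were co-dosed with 50 uM chenodeoxycholic acid (final) and incubated 16 h at 37 °C.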

[6] = target: Estrogen receptor (Homo sapiens) (UniProt P03372); experiment: qHTS assay to identify small molecule antagonists of the estrogen receptor alpha (ER-alpha) signaling pathway using the BG1 cell line in the presence of 0.1 nM 17-beta-estradiol (AID 1259244); note: % is set by controls: 0 for no effect and ±100 for the full control effect; nearly all actives have a fitted effect of over 50% in size
[7] = target: Estrogen receptor (Homo sapiens) (UniProt P03372); experiment: qHTS assay to identify small molecule agonists of the estrogen receptor alpha (ER-alpha) signaling pathway in the presence of an antagonist (AID 1259383; calls by dose curve; note: top concentration of the series differs between compounds; % is set by controls: 0 for no effect and ±100 for the full control effect; nearly all actives have a fitted effect of over 15% in size); conditions: VM7Luc4E2 cells, ERE-luciferase, +ICI-182,780, 22 h
[8] = target: Thyrotropin-releasing hormone receptor (Homo sapiens) (UniProt P34981); experiment: qHTS assay to identify small molecule antagonists of the thyrotropin-releasing hormone receptor (TRHR) signaling pathway (AID 1346877; active = well fitted inhibition curve with a large enough effect in the repeat runs, not every such curve was filed as active; note: % is set by controls: 0 for no effect and ±100 for the full control effect); conditions: TRHR-HEK293, TRH-induced calcium fluorescence, antagonist mode; at 23.6 µM (top of the series) unless noted
[9] = target: Androgen receptor (Homo sapiens) (UniProt P10275); experiment: qHTS assay to identify small molecule antagonists of the androgen receptor (AR) signaling pathway (AID 743035; active = well fitted inhibition curve with a large enough effect in the signal ratio in the repeat runs, not every such curve was filed as active; the % refers to the signal ratio; note: potency is the fitted concentration of half-maximal effect)
[10] = target: Androgen receptor (Homo sapiens) (UniProt P10275); experiment: qHTS assay to identify small molecule agonists of the androgen receptor (AR) signaling pathway using the MDA cell line (AID 743040; note: % is set by controls: 0 for no effect and ±100 for the full control effect; nearly all actives have a fitted effect of over 20% in size); conditions: MDA-kb2 AR-luc cells, MMTV luciferase, 16 h, stronger effect = higher value; at 70.3 µM (top of the series) unless noted
[11] = target: Androgen receptor (Homo sapiens) (UniProt P10275); experiment: qHTS assay to identify small molecule antagonists of the androgen receptor (AR) signaling pathway using the MDA cell line (AID 743042; note: potency is the fitted concentration of half-maximal effect; nearly all actives have a fitted effect of over 55% in size)
[12] = target: Androgen receptor (Homo sapiens) (UniProt P10275); experiment: qHTS assay to identify small molecule antagonists of the androgen receptor (AR) signaling pathway using the MDA cell line in the presence of 0.5 nM R1881 (AID 1259243); note: potency is the fitted concentration of half-maximal effect; nearly all actives have a fitted effect of over 50% in size
[13] = target: Androgen receptor (Homo sapiens) (UniProt P10275); experiment: qHTS assay to identify small molecule agonists of the androgen receptor (AR) signaling pathway in the presence of an antagonist (AID 1259381; calls by dose curve; note: % is set by controls: 0 for no effect and ±100 for the full control effect; nearly all actives have a fitted effect of over 15% in size); conditions: MDA-kb2 MMTV-luciferase, AR agonist + nilutamide, 16 h
[14] = qHTS assay to identify small molecule antagonists of the retinoic acid receptor (RAR) signaling pathway (AID 1159552; note: % is set by controls: 0 for no effect and ±100 for the full control effect; nearly all actives have a fitted effect of over 50% in size)
How it was run: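 Luminescence from a RARE luciferase reporter in C3RL4 cells served as read-out. Cells received compounds together with 1 uM final retinol and incubated 6 hr at 37 C before detection reagent was added for 30 min at room temperature.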

[15] = target: Nuclear receptor subfamily 1 group I member 2 (Homo sapiens) (UniProt O75469); experiment: Human pregnane X receptor (PXR) small molecule agonists, qHTS assay (AID 1346982); note: % is set by controls: 0 for no effect and ±100 for the full control effect; nearly all actives have a fitted effect of over 35% in size
How it was run: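 HepG2 PXR-Luc reporter line, 5% charcoal-stripped FBS; 5 hr pre-incubation, compound (DMSO) 24 hr at 37 C/5% CO2; ONE-Glo 30 min RT; luminescence read-out.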

[16] = target: Nuclear receptor subfamily 1 group I member 2 (Homo sapiens) (UniProt O75469); experiment: CYP3A4 induction through human pregnane X receptor (PXR) by small molecules, qHTS assay (AID 1346984); note: % is set by controls: 0 for no effect and ±100 for the full control effect; nearly all actives have a fitted effect of over 40% in size
How it was run: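 HepG2-derived DPX-2 line carrying PXR plus a CYP3A4-promoter luciferase reporter; cells plated 5 hr, compound-exposed 24 hr at 37C. CYP3A4 activity probed with 3uM (final) Luciferin-IPA for 3hr, then luciferase read after One-Glo.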

[17] = target: Nuclear receptor subfamily 1 group I member 2 (Homo sapiens) (UniProt O75469); experiment: Human pregnane X receptor (PXR) activation by small molecules, qHTS assay (AID 1346985); note: % is set by controls: 0 for no effect and ±100 for the full control effect; nearly all actives have a fitted effect of over 40% in size
[18] = qHTS assay to identify small molecule antagonists of the estrogen related receptor signaling pathway with the pleiotropic PPARgamma coactivator (PGC) from Tox21 10K library - cell viability counter screen (AID 1224840; active = well fitted cell-killing curve with a large enough effect in the repeat runs, not every such curve was filed as active; note: % is set by controls: 0 for no effect and ±100 for the full control effect; nearly all actives have a fitted effect of over 40% in size); conditions: PGC/ERR reporter cells viability, CellTiter-Fluor, 17.5 h
How it was run: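 Fluorescence read-out of CellTiter-Fluor viability reagent, added after cells had been exposed to compound in DMSO for 17.5 h at 37 C; 30 min development at 37 C/5% CO2. Cells: PGC/ERR line, 2,000/well.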

[19] = target: Bile acid receptor (Homo sapiens) (UniProt Q96RI1); experiment: qHTS assay to identify small molecule agonists of the farnesoid-X-receptor (FXR) signaling pathway (AID 743220; active = well fitted activation curve with a large enough effect in the signal ratio in the repeat runs, not every such curve was filed as active; the % refers to the signal ratio; note: % is set by controls: 0 for no effect and ±100 for the full control effect); conditions: HEK293T FXR-UAS-bla, beta-lactamase FRET ratio, 16 h; at 62.6 µM (top of the series) unless noted
[20] = target: Estrogen receptor beta (Homo sapiens) (UniProt Q92731); experiment: qHTS assay to identify small molecule agonists of the estrogen receptor beta (ER-beta) signaling pathway (AID 1259377; active = well fitted activation curve with a large enough effect in the signal ratio in the repeat runs, not every such curve was filed as active; the % refers to the signal ratio; note: % is set by controls: 0 for no effect and ±100 for the full control effect); conditions: ER-beta-UAS-bla HEK293T, beta-lactamase FRET ratio, 16 h; at 92.4 µM (top of the series)

Oc1ccccc1-c1ccccc1
Potency [1]: inactive

Nc1nc(N)c(N)c(N)n1
activity, negative = inhibition ([2]; at 79.1 µM (top of the series)): inactive: -7.37% | Potency [3]: inactive | activation [4]: inactive: 3.01% | activity change, negative = inhibition [5]: inactive: -2.46% | Potency [6]: inactive | Potency [1]: inactive | activation ([7]; at 92.4 µM (top of the series)): inactive: 1.47%

c1ccc2c(c1)Sc1ccccc1N2CC1CN2CCC1CC2 (configuration not stated)
activity, negative = inhibition [8]: inactive: -6.53%

Clc1ccc(COC(Cn2ccnc2)c2ccc(Cl)cc2Cl)cc1 (configuration not stated)
Potency [9]: active: 23.9 µM | activity change [10]: inactive: -10.4% and inactive: -11% and inactive: -12.4% | Potency [11]: active: 29.8 µM and active: 25.5 µM and active: 54.3 µM | Potency [12]: active: 12.8 µM and active: 17.2 µM and active: 13.3 µM | activation ([13]; at 42.5 µM (top of the series)): inactive: -8.91% | activation ([13]; at 92.4 µM (top of the series)): inactive: -9.97% and inactive: -10.7% | activation ([7]; at 42.5 µM (top of the series)): inactive: -0.941% | activation ([7]; at 92.4 µM (top of the series)): inactive: -14.3% and inactive: -16.1%

C#CC(O)(C=CCl)CC (configuration not stated)
activity, negative = inhibition [8]: inactive: -0.171%

CCCCCCCCCCCCCCCCn1cc[n+](C)c1
Potency [3]: inactive | activation ([7]; at 92.4 µM (top of the series)): inactive: -3.81% [middle of 4 runs]

C[N+]1(C)[C@@H]2CC[C@H]1CC(OC(=O)C(CO)c1ccccc1)C2 (some centres not stated)
activity, negative = inhibition ([2]; at 32.6 µM (top of the series)): inactive: 1.11% | activity, negative = inhibition ([2]; at 69.4 µM (top of the series)): inactive: 6.44% | Potency [3]: inactive | Potency [6]: inactive | activation ([7]; at 42.5 µM (top of the series)): inactive: 0.647%

O=C(O)c1ccccc1O
Potency [14]: inactive | Potency [15]: inactive | Potency [16]: inactive | Potency [17]: inactive

CCCCCCCCCCCCN=C(N)N
activation [3]: inactive: -3.02% [at 3.01 µM] | activity, negative = inhibition [14]: inactive: -2.78% [at 3.27 µM] | activation ([7]; at 3.27 µM (top of the series)): inactive: 1.01%

CCCn1cc[n+](C)c1
activity, negative = inhibition ([2]; at 69.4 µM (top of the series)): inactive: -9.98% | activity, negative = inhibition ([2]; at 79.1 µM (top of the series)): inactive: -1.56% and inactive: -5.22% | Potency [3]: inactive | Potency [6]: inactive | activation ([7]; at 92.4 µM (top of the series)): inactive: -1.2% and inactive: 0.816% and inactive: 1.36%

CCCCCCCCCC(CC)c1ccc(S(=O)(=O)O)cc1 (configuration not stated)
viability change, negative = cytotoxic ([18]; at 42.5 µM (top of the series)): inactive: -10% | viability change, negative = cytotoxic ([18]; at 92.4 µM (top of the series)): inactive: -19% and inactive: -21.1% and inactive: -18.2%

C[N+]1(CCF)[C@@H]2CC[C@H]1CC(OC(=O)C(O)(c1ccccc1)c1ccccc1)C2 (some centres not stated)
Potency [1]: inactive

CC(=O)[O-].CC(=O)[O-].CC(=O)[O-].[Cr+3]
Potency [15]: inactive

Clc1ccc(CO/N=C(\Cn2ccnc2)c2ccc(Cl)cc2Cl)c(Cl)c1
Potency [3]: inactive | activity change, negative = inhibition [5]: inactive: -1.06% [at 62.6 µM] | activation [19]: inactive: 6.88% | activation ([7]; at 42.5 µM (top of the series)): inactive: 2.18%

Cc1ccc(OP(=O)(Oc2ccc(C)cc2)Oc2ccc(C)cc2)cc1
activation [20]: inactive: 0.905% | Potency [1]: inactive
